ChEMBL document CHEMBL4304759, “Identifying Novel Anti-Osteoporosis Leads with a Chemotype-Assembly Approach” (J Med Chem, 2019)

Tested on: Rattus norvegicus
Experiment: Anti-osteoporosis activity in ovariectomized Sprague-Dawley rat assessed as femur bone mineral density loss at 1 mg/kg/day, po for 3 months measured post-last dose by dual energy X-ray absorptiometry (RVb = 19%)
Assay type: functional

Compound: NCCCC(O)(P(=O)([O-])O)P(=O)(O)O.O.O.O.[Na+]
- Activity: 3%
